Test system: human proteasomes (hCP) hβ2
Settings: comparing 2 to 4c, Jurkat lysate

SMILES: CC(C)[C@H](NC(=O)[C@@H]1OC(=O)[C@H]1C1CCCC1)C(=O)N[C@H](C(=O)OCc1ccccc1)C(C)C [Compound 4c]
- improvement of inhibitory selectivity of hβ5 over hβ2, factor: 4

Reference: paper PMC6168434 (European journal of medicinal chemistry, 2018)
